According to patent US20250140406A1, “CLASSIFYING TUMORS AND PREDICTING RESPONSIVENESS” (Oncocyte Corporation, priority 2022, published 2025):

Key:
[1] = system: cancer cell lines, DetermaIO classes; experiment: Association of PRISM compound sensitivity with DetermaIO (DTIO) cell line classes; format: cell-based; details: correlation of PRISM compound sensitivity with DTIO
[2] = system: cancer cell lines classified IM, MSL, M; experiment: PRISM screen compound sensitivity correlated with IM, MSL and M subtype of cell lines (101 gene signature); format: cell-based

sodium-monofluorophosphate
DTIO Corr test ([1]; test cell set (188 cell lines)): 0.04504
DTIO Corr train ([1]; training cell set (371 cell lines)): −0.02506
IM Corr test ([2]; correlation of PRISM compound sensitivity with IM subtype correlation, test cell set (188 cell lines)): 0.1269
M Corr test ([2]; correlation of PRISM compound sensitivity with M subtype correlation, test cell set (188 cell lines)): −0.1347
MSL Corr test ([2]; correlation of PRISM compound sensitivity with MSL subtype correlation, test cell set (188 cell lines)): −0.08529
TNBCType train ([2]; subtype (IM, MSL or M) the PRISM compound sensitivity is associated with, training cell set (371 cell lines), 101 gene signature): MSL
